Test results reported in patent US20060094649A1, “Hla-a1,-a2,-a3,-a24,-b7, and-b44 tumor associated antigen peptides and compositions” (priority 2002, published 2006).

What was measured:
[1] = test system: HLA-A3 supertype molecules; assay: HLA-A3 supertype cross-binding (A*0301, A*1101, A*3101, A*3301, A*6801)
[2] = test system: HLA-B44 supertype molecules; assay: HLA-B44 supertype cross-binding; parameters: species or system human; conditions: number of the six B44 supertype alleles bound
[3] = Table 20, binding affinity threshold of 200 nM or less
[4] = MAGE2-derived B44 peptides, Table 29

Structure (SMILES) | Degeneracy [2, 4] | other results
CC[C@H](C)[C@H](N)C(=O)N[C@H](C(=O)N1CCC[C@H]1C(=O)N[C@@H](CO)C(=O)N[C@@H](Cc1ccc(O)cc1)C(=O)N[C@H](C(=O)N[C@@H](Cc1ccc(O)cc1)C(=O)N[C@@H](Cc1ccc(O)cc1)C(=O)N[C@@H](CCCNC(=N)N)C(=O)O)[C@@H](C)O)C(C)C | – | No. A3 supertype alleles crossbound (200) [1, 3]: 5
CC(C)C[C@H](NC(=O)CNC(=O)[C@H](Cc1ccccc1)NC(=O)[C@H](CC(=O)O)NC(=O)[C@@H](NC(=O)[C@@H](NC(=O)[C@@H](N)CCCCN)C(C)C)[C@@H](C)O)C(=O)N[C@@H](C)C(=O)N[C@@H](CCCNC(=N)N)C(=O)O | – | No. A3 supertype alleles crossbound (200) [1]: 3
CC(C)C[C@H](NC(=O)[C@H](CC(C)C)NC(=O)[C@@H](NC(=O)[C@H](CC(C)C)NC(=O)[C@@H](NC(=O)[C@@H](N)CCCNC(=N)N)[C@@H](C)O)[C@@H](C)O)C(=O)N[C@@H](CO)C(=O)N[C@H](C(=O)N[C@H](C(=O)N[C@@H](CCCNC(=N)N)C(=O)O)[C@@H](C)O)C(C)C | – | No. A3 supertype alleles crossbound (200) [1, 3]: 3
C[C@H](NC(=O)[C@H](Cc1c[nH]cn1)NC(=O)[C@H](Cc1ccc(O)cc1)NC(=O)[C@H](CCC(=O)O)NC(=O)[C@@H](NC(=O)[C@H](CCC(=O)O)NC(=O)[C@@H](N)CC(=O)O)[C@@H](C)O)C(=O)N[C@@H](CC(=O)O)C(=O)NCC(=O)O [compound 562] | – | Degeneracy [2]: 1
C[C@H](NC(=O)[C@H](Cc1c[nH]cn1)NC(=O)[C@H](Cc1ccc(O)cc1)NC(=O)[C@H](CCC(=O)O)NC(=O)[C@@H](NC(=O)[C@H](CCC(=O)O)NC(=O)[C@@H](N)CC(=O)O)[C@@H](C)O)C(=O)N[C@@H](CC(=O)O)C(=O)NCC(=O)NCC(=O)O [compound 563] | – | Degeneracy [2]: 1
CC[C@H](C)[C@H](NC(=O)[C@@H](NC(=O)[C@@H](NC(=O)[C@H](CS)NC(=O)[C@H](CC(=O)O)NC(=O)[C@H](CO)NC(=O)CNC(=O)[C@@H](NC(=O)[C@H](CCC(=O)O)NC(=O)[C@@H]1CCCN1)C(C)C)[C@@H](C)O)[C@@H](C)O)C(=O)N[C@@H](Cc1c[nH]cn1)C(=O)N[C@@H](Cc1ccc(O)cc1)C(=O)O [compound 643] | – | Degeneracy ([2]; p53-derived B44 peptides, Table 28): 0
CC(C)C[C@H](NC(=O)[C@H](Cc1ccc(O)cc1)NC(=O)[C@H](CC(N)=O)NC(=O)[C@H](CCC(=O)O)NC(=O)[C@@H](N)CCC(N)=O)C(=O)N[C@@H](CCC(=O)O)C(=O)N[C@@H](Cc1ccc(O)cc1)C(=O)N[C@@H](CCCNC(=N)N)C(=O)N[C@@H](CCC(N)=O)C(=O)N[C@H](C(=O)O)C(C)C [compound 653] | 6 | –
CC[C@H](C)[C@H](NC(=O)[C@H](CC(C)C)NC(=O)[C@H](C)NC(=O)[C@H](CCCNC(=N)N)NC(=O)[C@@H]1CCCN1C(=O)CNC(=O)[C@H](Cc1c[nH]c2ccccc12)NC(=O)[C@H](CC(C)C)NC(=O)[C@H](Cc1ccccc1)NC(=O)[C@H](CCC(=O)O)NC(=O)[C@@H](N)Cc1ccc(O)cc1)C(=O)O [compound 654] | 6 | –
CC(C)C[C@H](NC(=O)[C@@H](NC(=O)[C@@H](NC(=O)[C@H](CCC(=O)O)NC(=O)[C@@H](N)C(C)C)C(C)C)[C@@H](C)O)C(=O)NCC(=O)N[C@@H](CCC(=O)O)C(=O)N[C@H](C(=O)N1CCC[C@H]1C(=O)N[C@@H](C)C(=O)O)C(C)C [compound 656] | 5 | –
CSCC[C@H](NC(=O)[C@H](CCCNC(=N)N)NC(=O)[C@@H]1CCCN1C(=O)CNC(=O)[C@H](CCC(=O)O)NC(=O)[C@@H](N)CCC(=O)O)C(=O)N[C@@H](Cc1ccccc1)C(=O)N1CCC[C@H]1C(=O)N[C@@H](CC(=O)O)C(=O)N[C@@H](CC(C)C)C(=O)O [compound 657] | 5 | –
CC[C@H](C)[C@H](NC(=O)[C@H](Cc1c[nH]cn1)NC(=O)[C@@H]1CCCN1C(=O)[C@H](CCC(=O)O)NC(=O)CN)C(=O)N[C@@H](CO)C(=O)N[C@@H](Cc1ccc(O)cc1)C(=O)N1CCC[C@H]1C(=O)N1CCC[C@H]1C(=O)N[C@@H](CC(C)C)C(=O)O [compound 682] | 4 | –
CC(C)C[C@H](NC(=O)[C@@H](NC(=O)[C@H](CO)NC(=O)[C@H](CO)NC(=O)[C@H](CO)NC(=O)[C@H](CO)NC(=O)[C@H](C)NC(=O)[C@@H](NC(=O)[C@H](CCC(N)=O)NC(=O)[C@H](CCC(N)=O)NC(=O)[C@H](CCC(=O)O)NC(=O)[C@@H](N)CCC(=O)O)[C@@H](C)O)[C@@H](C)O)C(=O)O [compound 686] | 3 | –
CC(C)C[C@H](NC(=O)[C@H](CC(C)C)NC(=O)[C@H](CC(C)C)NC(=O)[C@H](Cc1ccccc1)NC(=O)[C@H](Cc1c[nH]cn1)NC(=O)[C@@H](NC(=O)[C@H](CC(C)C)NC(=O)[C@H](CCC(=O)O)NC(=O)[C@@H](N)C(C)C)C(C)C)C(=O)N[C@@H](CCCCN)C(=O)N[C@@H](Cc1ccc(O)cc1)C(=O)O [compound 689] | 3 | –
CC[C@H](C)[C@H](NC(=O)[C@@H]1CCCN1C(=O)[C@@H](NC(=O)[C@@H](NC(=O)[C@H](CCC(=O)O)NC(=O)[C@@H](N)C(C)C)C(C)C)C(C)C)C(=O)N[C@@H](CO)C(=O)N[C@@H](Cc1c[nH]cn1)C(=O)N[C@@H](CC(C)C)C(=O)N[C@@H](Cc1ccc(O)cc1)C(=O)O [compound 692] | 3 | –
CSCC[C@H](NC(=O)[C@H](CCCNC(=N)N)NC(=O)[C@@H]1CCCN1C(=O)CNC(=O)[C@H](CCC(=O)O)NC(=O)[C@H](CCC(=O)O)NC(=O)[C@@H](N)CCC(=O)O)C(=O)N[C@@H](Cc1ccccc1)C(=O)N1CCC[C@H]1C(=O)N[C@@H](CC(=O)O)C(=O)N[C@@H](CC(C)C)C(=O)O [compound 697] | 2 | –
CSCC[C@H](NC(=O)[C@H](CCC(=O)O)NC(=O)[C@H](C)NC(=O)[C@H](CCCCN)NC(=O)[C@@H](NC(=O)[C@@H](NC(=O)[C@@H]1CCCN1C(=O)[C@H](CCC(=O)O)NC(=O)[C@@H](N)CCCNC(=N)N)C(C)C)[C@@H](C)O)C(=O)N[C@@H](CC(C)C)C(=O)N[C@@H](CCC(=O)O)C(=O)N[C@@H](CO)C(=O)N[C@H](C(=O)O)C(C)C [compound 699] | 2 | –

More lines, main results first:

Degeneracy [2, 4] | Structure (SMILES) | other results
6 | CC[C@H](C)[C@H](NC(=O)[C@H](C)NC(=O)[C@H](C)NC(=O)[C@H](CCC(N)=O)NC(=O)[C@H](Cc1ccccc1)NC(=O)[C@H](CCC(=O)O)NC(=O)[C@H](CO)NC(=O)[C@H](CCC(=O)O)NC(=O)[C@@H](N)CC(C)C)C(=O)O [compound 645] | –
6 | CC[C@H](C)[C@H](NC(=O)[C@H](C)NC(=O)[C@H](C)NC(=O)[C@H](CCC(N)=O)NC(=O)[C@H](Cc1ccccc1)NC(=O)[C@H](CCC(=O)O)NC(=O)[C@H](CO)NC(=O)[C@H](CCC(=O)O)NC(=O)[C@@H](N)CC(C)C)C(=O)N[C@@H](CO)C(=O)N[C@@H](CCCNC(=N)N)C(=O)N[C@@H](CCCCN)C(=O)N[C@@H](CCSC)C(=O)O [compound 646] | –
6 | CC[C@H](C)[C@H](NC(=O)[C@H](C)NC(=O)[C@H](C)NC(=O)[C@H](CCC(N)=O)NC(=O)[C@H](Cc1ccccc1)NC(=O)[C@H](CCC(=O)O)NC(=O)[C@@H](N)CO)C(=O)N[C@@H](CO)C(=O)N[C@@H](CCCNC(=N)N)C(=O)N[C@@H](CCCCN)C(=O)N[C@@H](CCSC)C(=O)O [compound 647] | –
6 | CC(C)C[C@H](NC(=O)[C@H](Cc1ccc(O)cc1)NC(=O)[C@H](CCC(=O)O)NC(=O)[C@@H](N)CO)C(=O)N[C@@H](CCC(N)=O)C(=O)N[C@@H](CC(C)C)C(=O)N[C@H](C(=O)N[C@@H](Cc1ccccc1)C(=O)NCC(=O)O)C(C)C [compound 649] | –
6 | CC[C@H](C)[C@H](NC(=O)CNC(=O)[C@H](Cc1ccccc1)NC(=O)[C@@H](NC(=O)[C@H](CC(C)C)NC(=O)[C@H](CCC(N)=O)NC(=O)[C@H](CC(C)C)NC(=O)[C@H](Cc1ccc(O)cc1)NC(=O)[C@H](CCC(=O)O)NC(=O)[C@@H](N)CO)C(C)C)C(=O)O [compound 650] | –
6 | CC[C@H](C)[C@H](NC(=O)CNC(=O)[C@H](Cc1ccccc1)NC(=O)[C@@H](NC(=O)[C@H](CC(C)C)NC(=O)[C@H](CCC(N)=O)NC(=O)[C@H](CC(C)C)NC(=O)[C@H](Cc1ccc(O)cc1)NC(=O)[C@H](CCC(=O)O)NC(=O)[C@@H](N)CO)C(C)C)C(=O)N[C@@H](CCC(=O)O)C(=O)N[C@H](C(=O)N[C@H](C(=O)O)C(C)C)C(C)C [compound 651] | –
4 | CSCC[C@H](NC(=O)[C@H](CO)NC(=O)[C@H](CC(C)C)NC(=O)[C@H](CCC(=O)O)NC(=O)[C@H](CCC(=O)O)NC(=O)[C@@H](N)Cc1c[nH]c2ccccc12)C(=O)N[C@@H](CC(C)C)C(=O)N[C@@H](CCC(=O)O)C(=O)N[C@H](C(=O)O)C(C)C [compound 680] | –
4 | CSCC[C@H](NC(=O)[C@H](CO)NC(=O)[C@H](CC(C)C)NC(=O)[C@H](CCC(=O)O)NC(=O)[C@@H](N)CCC(=O)O)C(=O)N[C@@H](CC(C)C)C(=O)N[C@@H](CCC(=O)O)C(=O)N[C@H](C(=O)N[C@@H](Cc1ccccc1)C(=O)O)C(C)C [compound 681] | –
3 | CC(C)[C@H](NC(=O)[C@H](CO)NC(=O)[C@H](CC(=O)O)NC(=O)[C@H](CCC(=O)O)NC(=O)[C@H](CCCNC(=N)N)NC(=O)CNC(=O)[C@H](CCC(=O)O)NC(=O)[C@@H](N)Cc1ccccc1)C(=O)N[C@@H](Cc1ccccc1)C(=O)O [compound 693] | –
2 | CC(C)C[C@H](NC(=O)CNC(=O)[C@H](CCC(=O)O)NC(=O)[C@@H](N)CCC(=O)O)C(=O)N[C@@H](CCC(=O)O)C(=O)N[C@@H](C)C(=O)N[C@@H](CCCNC(=N)N)C(=O)NCC(=O)N[C@@H](CCC(=O)O)C(=O)N[C@@H](C)C(=O)O [compound 694] | –
2 | CC[C@H](C)[C@H](NC(=O)[C@H](C)NC(=O)[C@H](C)NC(=O)[C@H](CCC(N)=O)NC(=O)[C@H](Cc1ccccc1)NC(=O)[C@H](CCC(=O)O)NC(=O)[C@@H](N)CO)C(=O)O [compound 698] | –
0 | CC(C)[C@H](NC(=O)[C@H](CO)NC(=O)[C@H](CC(=O)O)NC(=O)[C@H](CCC(=O)O)NC(=O)[C@@H](N)CCCNC(=N)N)C(=O)N[C@@H](Cc1ccccc1)C(=O)N[C@@H](C)C(=O)O [compound 717] | –
0 | CC(C)C[C@H](NC(=O)[C@H](Cc1ccc(O)cc1)NC(=O)[C@H](CC(N)=O)NC(=O)[C@H](CCC(=O)O)NC(=O)[C@@H](N)CCC(N)=O)C(=O)N[C@@H](CCC(=O)O)C(=O)N[C@@H](Cc1ccc(O)cc1)C(=O)O [compound 718] | –

Like-named read-outs stand apart in the source and are kept apart here.
